{
  "source": "patent US12485122B2",
  "about": "“Combination of palbociclib and adagrasib for lung cancer” (Mirati Therapeutics, Inc., priority 2018, dated 2025)",
  "test_system": "SW1573 cells",
  "test": "SW1573 tumor bearing mice, single agents and combination",
  "format": "in vivo, nude/nude mice",
  "settings": "Study Day 11, p.o. daily, Compound 478 100 mg/kg, palbociclib 130 mg/kg, 7 mice averaged",
  "description": "Immunocompromised nude/nude mice were inoculated in the right hind flank with cells or patient derived tumor samples harboring a KRas G12C mutation. When tumor volumes reached between 200-400 mm^3 in size, the mice were divided into four groups of 5-12 mice each. The first group was administered vehicle only. […] The fourth group was administered the single agent dose of the KRas G12C inhibitor in combination with the single agent dose of the CDK 4/6 inhibitor. […] Tumor volumes were measured using a caliper every two-three days and tumor volumes are calculated by the formula: […].\nFor example, 28 nude/nude mice were inoculated in the right hind limb with 5×10^6 SW1573 cells.",
  "data": [
    {"compound": "C=C(F)C(=O)N1CCN(c2nc(OC[C@@H]3CCCN3C)nc3c2CCN(c2cccc4cccc(Cl)c24)C3)C[C@@H]1CC#N", "note": "[Compound 478]", "values": [
      {"measurement": "Average Tumor Volume", "result": 444, "unit": "mm^3"}
    ]}
  ]
}
